Assay [1] addresses Kappa-type opioid receptor (Mus musculus) (UniProt P33534). Briefly: Ratio of ED50 of compound to kappa opioid receptor antagonist norbinaltorphimine (nor-BNI) at conc. of 12.25 umol/kg administarted sc.
For assay [2], the target named is Delta-type opioid receptor (Mus musculus) (UniProt P32300). Briefly: Ratio of ED50 of compound to delta opioid receptor antagonist naltrindole (NTI) at 44.44 umol/kg administarted sc.
For assay [3], the target named is Kappa-type opioid receptor (Cavia porcellus) (UniProt P41144). Briefly: Agonist potency of compound was evaluated towards kappa opioid receptor in absence of antagonist in guinea pig ileum(GPI).
Assay [4] addresses Mu-type opioid receptor (Mus musculus) (UniProt P42866). Briefly: Ratio of ED50 of compound to mu opioid receptor antagonist beta-funaltrexamine (FMN) at 10.18 umol/kg administarted sc.

Chains of the proteins cited; added tags and fusions are not shown.
UniProt P33534, whole entry: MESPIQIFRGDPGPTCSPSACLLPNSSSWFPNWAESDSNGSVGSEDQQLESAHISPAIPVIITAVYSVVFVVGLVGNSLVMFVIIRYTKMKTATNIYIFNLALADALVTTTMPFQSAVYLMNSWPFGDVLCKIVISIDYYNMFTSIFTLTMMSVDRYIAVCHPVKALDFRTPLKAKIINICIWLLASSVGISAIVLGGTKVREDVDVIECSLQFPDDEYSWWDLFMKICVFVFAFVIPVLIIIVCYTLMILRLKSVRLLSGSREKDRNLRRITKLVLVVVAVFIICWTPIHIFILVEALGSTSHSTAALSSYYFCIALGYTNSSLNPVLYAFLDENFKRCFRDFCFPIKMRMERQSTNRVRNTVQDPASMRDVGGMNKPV
UniProt P32300, whole entry: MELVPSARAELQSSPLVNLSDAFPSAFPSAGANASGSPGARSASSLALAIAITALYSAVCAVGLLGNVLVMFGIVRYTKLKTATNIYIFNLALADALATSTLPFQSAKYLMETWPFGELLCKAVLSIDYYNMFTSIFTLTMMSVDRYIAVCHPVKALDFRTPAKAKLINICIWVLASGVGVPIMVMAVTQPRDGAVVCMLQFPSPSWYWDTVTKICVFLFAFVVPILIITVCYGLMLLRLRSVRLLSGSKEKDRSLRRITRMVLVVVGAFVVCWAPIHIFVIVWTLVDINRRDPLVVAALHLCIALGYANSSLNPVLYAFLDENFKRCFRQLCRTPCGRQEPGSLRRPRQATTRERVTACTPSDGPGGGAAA
UniProt P41144, whole entry: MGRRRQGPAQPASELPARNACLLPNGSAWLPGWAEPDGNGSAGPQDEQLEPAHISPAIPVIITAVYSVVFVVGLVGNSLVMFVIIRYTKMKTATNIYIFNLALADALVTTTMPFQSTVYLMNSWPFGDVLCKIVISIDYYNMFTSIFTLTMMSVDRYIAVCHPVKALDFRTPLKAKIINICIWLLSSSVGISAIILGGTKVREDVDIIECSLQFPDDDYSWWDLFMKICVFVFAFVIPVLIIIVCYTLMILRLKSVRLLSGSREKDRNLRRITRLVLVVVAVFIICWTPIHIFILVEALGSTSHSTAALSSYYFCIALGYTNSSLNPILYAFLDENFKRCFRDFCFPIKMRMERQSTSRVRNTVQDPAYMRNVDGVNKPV
UniProt P42866, whole entry: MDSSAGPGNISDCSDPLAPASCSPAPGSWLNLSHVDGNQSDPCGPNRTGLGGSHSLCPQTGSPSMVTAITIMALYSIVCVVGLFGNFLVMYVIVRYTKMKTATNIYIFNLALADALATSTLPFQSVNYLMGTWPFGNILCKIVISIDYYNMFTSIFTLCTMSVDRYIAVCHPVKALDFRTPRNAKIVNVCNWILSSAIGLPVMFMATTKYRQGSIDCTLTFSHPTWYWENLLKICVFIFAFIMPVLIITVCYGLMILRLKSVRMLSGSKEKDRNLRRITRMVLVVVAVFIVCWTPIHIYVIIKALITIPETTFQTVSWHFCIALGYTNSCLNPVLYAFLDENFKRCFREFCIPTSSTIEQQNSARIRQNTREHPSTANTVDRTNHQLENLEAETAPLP

Structures are written as SMILES.

Regarding `CN(C(=O)Cc1ccc(Cl)c(Cl)c1)[C@H](CN1CCCC1)c1ccccc1`, the Ratio in assay [1] was 2.31; in assay [2], 1.19; in assay [4], 1.72. Besides, in assay [3], the Ke is 0.05 nM.
